The text below walks through data of BindingDB's records for doi:10.1016/j.bmcl.2011.05.078 (Indiana University, 2011).

By UniProt entry, the sequences of proteins in these tests, tags left out.
UniProt Q06124, whole entry: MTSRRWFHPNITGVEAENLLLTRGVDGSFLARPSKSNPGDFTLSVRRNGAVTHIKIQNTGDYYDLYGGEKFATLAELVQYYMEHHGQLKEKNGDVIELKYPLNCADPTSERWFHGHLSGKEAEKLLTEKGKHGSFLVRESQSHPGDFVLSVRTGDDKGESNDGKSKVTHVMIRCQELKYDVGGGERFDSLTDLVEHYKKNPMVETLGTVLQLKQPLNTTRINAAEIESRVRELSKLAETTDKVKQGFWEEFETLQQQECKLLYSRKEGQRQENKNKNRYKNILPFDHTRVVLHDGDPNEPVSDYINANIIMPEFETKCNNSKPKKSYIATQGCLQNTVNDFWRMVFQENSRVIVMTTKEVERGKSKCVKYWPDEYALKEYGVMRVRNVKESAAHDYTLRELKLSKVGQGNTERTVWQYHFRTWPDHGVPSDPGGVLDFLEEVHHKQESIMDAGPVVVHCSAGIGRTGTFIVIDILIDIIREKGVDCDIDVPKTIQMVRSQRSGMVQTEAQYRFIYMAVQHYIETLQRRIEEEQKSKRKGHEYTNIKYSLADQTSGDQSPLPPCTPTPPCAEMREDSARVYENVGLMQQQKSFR

The target of assay [1] is T1, Tyrosine-protein phosphatase non-receptor type 11 (Homo sapiens, UniProt Q06124). The assay can be described thus: Competitive inhibition at SHP2 catalytic domain assessed as inhibition of pNPP to p-nitrophenol conversion by spectrophotometry.
Assay [2] deals with T1, Tyrosine-protein phosphatase non-receptor type 11. As to the kind of experiment: Reversible inhibition at SHP2 catalytic domain assessed as inhibition of pNPP to p-nitrophenol conversion by spectrophotometry.

The term Ki denotes the dissociation constant of the complex between target and ligand, obtained from inhibition or displacement.

As to `Cc1cc(S(=O)(=O)O)c(S(=O)(=O)O)cc1-n1[nH]c(C(=O)O)cc1=O`, the inhibitory constant (Ki) in assay [1] and in assay [2] was 4.6 µM throughout.
